## Antibody variant affinities, Ab-14 light chain, assay B

Values reported by Li et al. 2023, doi:10.1038/s41467-023-39022-2 (FLAb copy).

All variants were tested on one target, the spike HR2 peptide PDVDLGDISGINAS (SARS-CoV-2).

Ab-14 is the parent antibody, in scFv form: VH, then the linker GGGGSGGGGSGGGGS, then VL. The heavy chain is unchanged in all variants.
VH: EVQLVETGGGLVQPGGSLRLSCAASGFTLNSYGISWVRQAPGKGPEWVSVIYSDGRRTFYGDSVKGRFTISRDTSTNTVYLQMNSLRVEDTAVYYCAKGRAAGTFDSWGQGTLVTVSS
VL: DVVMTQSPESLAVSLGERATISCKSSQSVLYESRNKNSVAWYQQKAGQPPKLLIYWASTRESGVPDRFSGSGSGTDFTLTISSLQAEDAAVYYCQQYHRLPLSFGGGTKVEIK

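Phage display of a naive human antibody library on the peptide gave the parent. The variants were designed computationally from a first round of random CDR variants and then made and measured. Several design methods are mixed in this list. The scFvs were displayed on barcoded MATa yeast, the peptide on MATalpha yeast. After mating in shaken culture at 30 °C for 16 h, diploids were selected and their barcode pairs sequenced. A regression on co-assayed BCL2-family reference pairs converts the normalised counts of each replicate to an apparent Kd. Mating was done six times.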

Each variant is given by its three light chain CDRs, as the data file delimits them; those of the parent are KSSQSVLYESRNKNSVA, WASTRES, QQYHRLPLS.
Values are apparent Kd, the geometric mean of the replicates that gave a signal; lower means stronger binding.
An entry "nd" has no value in the source: the pair was not observed among the diploids in any replicate. This suggests poor binding but is not conclusive.
Entries are sorted by rising average, undetected variants last.
Empty control strains, which show no peptide, gave a signal in 4% of pairings with all light chain designs; the median was 430 nM and 95% of these signals were weaker than 38 nM. No background was subtracted.
The range of this assay differs from that of the first round, and the authors advise against merging the two.
Of ten entries with the parent sequence, four were seen in most replicates (averages 2.2 nM to 240 nM), three in one and three in none, so single entries are noisy.
In the paper, a design with two or fewer of six values counts as a poor binder.

| CDR-L1 | CDR-L2 | CDR-L3 | Kd | detected |
|---|---|---|---|---|
| KLSQSFLYESRNKNSVA | NASQREE | QQYHRLPLS | 200 pM | 6/6 |
| KLSQSDLYQSRNKNSVA | EASTRES | QQYHRLPLS | 300 pM | 6/6 |
| KLSQSALYESRNKNNVA | EASTRES | QQYHRLPLS | 310 pM | 6/6 |
| KLYQSVGYESRNKNSVA | NASQRES | QQYHRLPLS | 360 pM | 6/6 |
| KLSQSMLYESRNKNSVA | NASTREL | QQYHRLPLS | 560 pM | 6/6 |
| KLSQSVLGEQRNKNSVA | DASTRES | QQYHRLPLS | 630 pM | 6/6 |
| KFSQSVLYESRNKNSVA | NAQTRLE | QQYHRLPLS | 790 pM | 6/6 |
| KFSQEKLYESRNKNSVA | SASTRES | QQYHRLPLS | 830 pM | 6/6 |
| KVSQSVLYESRNKNSVA | EASHRES | QQYHRLPLS | 830 pM | 6/6 |
| KLPQSAEYMSRNKNSVA | SASTRES | QQYHRLPLS | 870 pM | 6/6 |
| KLQQGMDYESRNDNSVA | HASKRES | QQYHRLPLF | 950 pM | 6/6 |
| KLQQSNLYESRNDNSVA | HASMRES | QQYHRLPLF | 950 pM | 6/6 |
| KLSQSVLYQSRNKNSVA | EASTRES | QDYHRLPLS | 1.0 nM | 6/6 |
| KLSQSELYESRNKNNVA | GASQRES | QQYHRLPLS | 1.1 nM | 6/6 |
| RFSQSVLYESRNKNSVA | DASTRES | QQYHRLPLS | 1.2 nM | 6/6 |
| TLTQVQGMESHNMDNVA | DLSTRGS | QQYHRLPLS | 1.3 nM | 6/6 |
| KIGATLNMMMHKNNNVA | DLVTREN | QQYHRLPLS | 1.4 nM | 6/6 |
| KSSDSVLYESRNKNSVA | SASTRES | QQYHRLPLS | 1.5 nM | 6/6 |
| KSSPSDLYESRNKNSVA | EASTREQ | QQYHRLPLS | 1.5 nM | 6/6 |
| KIGQTLNTLMHTKNNVA | DLVTRED | QQYHRLPLS | 1.6 nM | 6/6 |
| KLSMSWEYESRNSNSVA | NASTREN | QQYHRLPLA | 1.7 nM | 6/6 |
| KFSQMANTFSVSMNAVA | EMSTRED | QQYNRLPLA | 2.3 nM | 6/6 |
| KSSQSILYESVNKNSVA | HASTREE | QQYHRLPLS | 2.7 nM | 6/6 |
| KSSPSVLYESRNENSVA | YGSTRES | QQYHRLPLS | 2.7 nM | 6/6 |
| KSSQSVLYESRNKNQVA | SASTRES | QQYHRLPLS | 2.8 nM | 6/6 |
| KFSHSVLYESRNKNSVA | EASTRES | QSYDRLPLS | 3.2 nM | 6/6 |
| KFGSGVHVESIMKNSIA | QTSTREE | QQYDRLPLS | 3.4 nM | 6/6 |
| KSSQSVLEESRNKNSVS | HASTRES | QQYHRLPLS | 3.5 nM | 6/6 |
| KIGHTLNTLYEKANNVA | DLVERVN | QQYHRLPLS | 3.7 nM | 6/6 |
| KVSQKDPMGSRNKNSVA | HASVREQ | QQYHRLPLS | 4.0 nM | 6/6 |
| KSSISGLYESRYKNSVA | EASTRES | QQYHRLPLS | 4.6 nM | 6/6 |
| HMSQVTMYGMWLKNSVA | QTSTREE | QQYDRLPLS | 5.0 nM | 6/6 |
| MISMEEAPASQQASSIA | QGGTRAE | QQYNRLPLC | 5.1 nM | 6/6 |
| HSSPSVLYESRNKNSVA | KASTRES | QQYHRLPLS | 6.3 nM | 6/6 |
| KVSQSGLYGMRNKMSVA | QASQRLS | QQYHRLPLS | 6.9 nM | 6/6 |
| KLQPSELYEERNDNSVA | QASQRES | QDYHRLPLS | 7.4 nM | 6/6 |
| KSSQSEDYESRNKNSVA | EASTRES | QQYHRLPLS | 7.7 nM | 6/6 |
| KLSQSVLYESSNKNSVA | WASTRES | QQYHRLPLS | 7.8 nM | 6/6 |
| TLGQVTMQLSRNKNSVA | DANTSED | QQYDRLPLS | 7.9 nM | 6/6 |
| KLQNFSQEDNKMWNNIA | DTTMVHT | QQYMTLPLE | 8.7 nM | 6/6 |
| KLSVSWLFESIEKNSVA | ERSTREN | QDYNRLPLS | 9.6 nM | 6/6 |
| MMSQVWGMGQRHMNNVA | QTSTREE | QQYDRLPLI | 12 nM | 6/6 |
| MISQVLNTLTKTGNNVA | DLAERED | QQYFRLPLS | 12 nM | 6/6 |
| HLSDRLSYGKDLQNAVA | GVQARMT | QQYARLPLL | 13 nM | 6/6 |
| TIGQSTLMESENRNNVA | QMSTREK | QQYDRLPLS | 15 nM | 6/6 |
| MMSQVTGMGQRHRNNVA | QTNEREP | QQYDRLPLI | 26 nM | 6/6 |
| TLSMLMDMTSRNVNSVA | DLTTRGN | QQYHRLPLS | 38 nM | 1/6 |
| MISQLMNMGQFAINSVA | QASIRNE | QQYDRLPLG | 46 nM | 5/6 |
| KLSSEYFESYGERQAVA | ENEATMN | QQYSLLPLS | 77 nM | 5/6 |
| KYSYSVLYESLNKNSVA | WASTRVS | QQYHRLPLS | 100 nM | 5/6 |
| MMSMGYLGGMRAKNNVA | QEETREN | QQYHRLPLI | 150 nM | 3/6 |
| MIAGGLRGVGRNKNSVA | NAQTRES | QHYHRLPLS | 160 nM | 5/6 |
| MLSEVLHMLGVQMNSIA | DLVLRAN | QQYHRLPLM | 520 nM | 1/6 |
| KSSPINLYNSRNKNSVA | WASTRES | QQYHRLPLS | nd | 0/6 |
| KSSWSSLYEESNKNSVA | WASTRES | VQYHRLPLS | nd | 0/6 |
| KSSDSVLYISRNKNSVA | WASTRES | QQYHRLPLS | nd | 0/6 |
| KSAQSVLYESRNKNSVA | WASRRES | QQYHRLPLS | nd | 0/6 |
| SMFEKEYEELQPENNIA | DETARMV | QQYFRLPLL | nd | 0/6 |
| KISQSVLLESRNVNSVA | WHSERES | QQCHRLPLS | nd | 0/6 |

For reference, 5 entries of the list once more:

| CDR-L1 | CDR-L2 | CDR-L3 | Kd | detected |
|---|---|---|---|---|
| KLSQSFLYESRNKNSVA | NASQREE | QQYHRLPLS | 200 pM | 6/6 |
| KLPQSAEYMSRNKNSVA | SASTRES | QQYHRLPLS | 870 pM | 6/6 |
| KSSQSVLEESRNKNSVS | HASTRES | QQYHRLPLS | 3.5 nM | 6/6 |
| KLQPSELYEERNDNSVA | QASQRES | QDYHRLPLS | 7.4 nM | 6/6 |
| KFSQMANTFSVSMNAVA | EMSTRED | QQYNRLPLA | 2.3 nM | 6/6 |